Measured values from PubChem BioAssay AID588855 (National Center for Advancing Translational Sciences (NCATS), 2011).
The list shows a part of the results, in another mix than the full data. Results filed as inconclusive are left out. A call without a number means that no potency is given here. Active and inactive are the calls of the source. Calls follow the shape of the dose curve; as a rule, active = well fitted inhibition curve with a large enough effect; inconclusive = small, poorly fitted or top-dose-only effect; inactive = no such curve, though single readings can be large or run the other way.

Assay: qHTS for Inhibitors of TGF-b; also: nearly all actives have a fitted effect of over 65% in size
Conditions: HepG2 CAGA-GFP TGF-b/SMAD3 reporter, GFP fluorescence, 18 h, TGF-beta stimulated, 500 pg/mL final; series mostly up to 46.1 µM
Potency is read from the fitted curve at half-maximal effect.

Structure (SMILES)	Potency
CP(=S)(Nn1cnnc1)Oc1ccccc1 (configuration not stated)	inactive
CP(=O)(Nc1ccccc1Br)Oc1ccccc1 (configuration not stated)	inactive
COc1ccccc1OP(C)(=O)Nc1ccccc1 (configuration not stated)	inactive
CP(=O)(Oc1ccccc1)OC(c1ccccc1)C(F)(F)F (configuration not stated)	inactive
Cc1cccc(C)c1OP(C)(=O)Nc1ccc(SC(F)(F)F)cc1 (configuration not stated)	inactive
CP(=O)(NC(=O)Nc1ccccc1)Oc1ccccc1 (configuration not stated)	inactive
CCOC(=O)c1ccc(NP(C)(=O)Oc2ccc(OC)cc2)cc1 (configuration not stated)	inactive
O=[N+]([O-])c1cc([N+](=O)[O-])c(O)c([N+](=O)[O-])c1.c1ccc(Oc2ccncc2)cc1	inactive
CCOP(C)(=S)SCC(=O)NC(C)C(=O)O (configuration not stated)	inactive
CP(=O)(Nc1ccccn1)Oc1ccc(Cl)cc1 (configuration not stated)	inactive
CCN(CC)CCCOC(=O)C(O)(c1ccccc1)c1ccccc1	inactive
Cc1cccc(C)c1OP(C)(N)=O (configuration not stated)	inactive
CC(C)(C)c1ccc(OP(C)(=O)Nc2ccc(SC(F)(F)F)cc2)cc1 (configuration not stated)	inactive
Cc1ccc(NP(C)(=O)Oc2ccccc2)c(C)c1 (configuration not stated)	inactive
COc1ccccc1OP(C)(=O)Nc1ccc(C)cc1 (configuration not stated)	inactive
CCOC(=O)c1ccc(NP(C)(=O)Oc2ccccc2)cc1 (configuration not stated)	inactive
Cc1cc(C)cc(OP(C)(N)=O)c1 (configuration not stated)	inactive
COc1ccc(OP(C)(=O)Nc2cccc(F)c2)cc1 (configuration not stated)	inactive
CC1=NCCc2c1[nH]c1ccccc21.O=[N+]([O-])c1cc([N+](=O)[O-])c(O)c([N+](=O)[O-])c1	inactive
COc1ccccc1OP(C)(=O)Nc1cccc(Br)c1 (configuration not stated)	inactive
CCOC(=O)c1ccc(NP(C)(=O)Oc2cc(C)cc(C)c2)cc1 (configuration not stated)	inactive
Cc1cc(C)cc(OP(C)(=O)Nc2ccc(C)cc2C)c1 (configuration not stated)	inactive
Cc1ccc(C)c(NP(C)(=O)Oc2ccccc2)c1 (configuration not stated)	inactive
CP(=O)(Nc1cccc(Br)c1)Oc1ccccc1 (configuration not stated)	inactive

Structure (SMILES)	Potency
Cc1cc(C)cc(OP(C)(=O)Nc2ccccn2)c1 (configuration not stated)	inactive
O=[N+]([O-])c1cc([N+](=O)[O-])c(-n2nnc3ccccc32)c([N+](=O)[O-])c1	inactive
CN(Cc1cccnc1)C(=O)COc1ccc(Cl)c(Cl)c1.O=[N+]([O-])c1cc([N+](=O)[O-])c(O)c([N+](=O)[O-])c1	inactive
Cc1nc2ccc3ccccc3c2s1.O=[N+]([O-])c1cc([N+](=O)[O-])c(O)c([N+](=O)[O-])c1	inactive
CC1=C2N=C(C=C3N=C(C(C)=C4[N-][C@@](C)([C@@H]5N=C1[C@](C)(CCC(=O)NC[C@@H](C)OP(=O)([O-])O[C@H]1[C@@H](O)[C@@H](n6cnc7cc(C)c(C)cc76)O[C@@H]1CO)[C@H]5CC(N)=O)[C@@](C)(CC(N)=O)[C@@H]4CCC(N)=O)[C@@](C)(CC(N)=O)[C@@H]3CCC(N)=O)C(C)(C)[C@@H]2CCC(N)=O.[C-]#N.[Co+3]	inactive
COc1ccccc1OP(C)(=O)Nc1c(C)cccc1C (configuration not stated)	inactive
CN1CCCCC1COC(=O)C1(O)c2ccccc2CCc2ccccc21 (configuration not stated)	inactive
CP(=O)(Nc1ccc(SC(F)(F)F)cc1)Oc1ccccc1 (configuration not stated)	inactive
CCCOc1ccc(NP(C)(=O)Oc2ccc(Cl)cc2)cc1 (configuration not stated)	inactive
COc1ccc(OP(C)(=O)Nc2cccc(Br)c2)cc1 (configuration not stated)	inactive
CN(C)CCOC(=O)C(O)(c1ccccc1)C1CCCCC1 (configuration not stated)	inactive
COc1ccc(NP(C)(=O)Oc2ccccc2OC)cc1 (configuration not stated)	inactive
O=[N+]([O-])c1ccc(OP2(=O)COCCO2)cc1 (configuration not stated)	inactive
Cc1cc(-c2cccc3ccccc23)c(C)cn1.O=[N+]([O-])c1cc([N+](=O)[O-])c(O)c([N+](=O)[O-])c1	inactive
Cc1c(C(c2ccc3c(c2)OCO3)c2c(C)n(C)n(-c3ccccc3)c2=O)c(=O)n(-c2ccccc2)n1C.O=[N+]([O-])c1cc([N+](=O)[O-])c(O)c([N+](=O)[O-])c1	inactive
CCOP(C)(=S)SCC(=O)NC(C)(CC)C(=O)O (configuration not stated)	inactive
CP(=O)(Nc1ccc2c(c1)OCCO2)Oc1ccccc1 (configuration not stated)	inactive
Cc1ccccc1NP(C)(=O)Nc1ccccc1C	inactive
CP(=O)(Nc1ccccc1F)Oc1ccccc1 (configuration not stated)	inactive
O=C(OCCN1CCN(CCOCc2ccccc2)CC1)C(O)(c1ccccc1)c1ccccc1	inactive
CCOC(=O)c1ccc(NP(C)(=O)Oc2ccc(F)cc2)cc1 (configuration not stated)	inactive
COc1ccc(OP(C)(=O)Nc2ccc(SC(F)(F)F)cc2)cc1 (configuration not stated)	inactive
CP(=O)(Nc1ccccc1)Oc1ccc(F)cc1 (configuration not stated)	inactive
CCCCCOc1ccc(NP(C)(=O)Oc2ccc(Cl)cc2Cl)cc1 (configuration not stated)	active: 10 µM

Structure (SMILES)	Potency
COc1ccccc1OP(C)(=O)Nc1ccc(C)c(C)c1 (configuration not stated)	inactive
COc1ccc(OP(C)(=O)Nc2ccccc2Br)cc1 (configuration not stated)	inactive
CP(=O)(OCCOc1ccccc1)OCCOc1ccccc1	inactive
CP(=O)(Nc1ccc(Cl)cc1Cl)Oc1ccccc1 (configuration not stated)	inactive
COc1ccccc1OP(C)(=O)Nc1ccc(Br)cc1 (configuration not stated)	inactive
COc1ccc(OP(C)(=O)Nc2ccccn2)cc1 (configuration not stated)	inactive
CN(C)CCOC(=O)C(O)(c1ccccc1)C1CCCC1 (configuration not stated)	inactive
O=[N+]([O-])c1cc([N+](=O)[O-])c(Nc2ccccn2)c([N+](=O)[O-])c1	active: 10 µM
Cc1c(NP(C)(=O)Oc2ccc(C(C)C)cc2)c(=O)n(-c2ccccc2)n1C (configuration not stated)	inactive
COc1ccccc1OP(C)(=O)Nc1ccc(C)cc1C (configuration not stated)	inactive
CP(=O)(Nc1ccccn1)Oc1ccccc1 (configuration not stated)	inactive
CCc1ccc(OP(C)(=O)O)cc1	inactive
COc1ccc(OP(C)(=O)Nc2ccc(Br)cc2)cc1 (configuration not stated)	inactive
CCN(CC)CC(O)COC(=O)C(O)(c1ccccc1)C1CCCCC1 (configuration not stated)	inactive
O=C(OCCCN1CCCC1)C(O)(c1ccccc1)C1CCCCC1 (configuration not stated)	inactive
COc1ccccc1OP(C)(=O)Nc1c(C)n(C)n(-c2ccccc2)c1=O (configuration not stated)	inactive
CCc1ccc(OP(C)(=O)Nc2cccnc2)cc1 (configuration not stated)	inactive
CP(=O)(Oc1ccccc1)N1CCOC1=O (configuration not stated)	inactive
CC(C)(C)c1ccc(OP(C)(=O)O)cc1	inactive
COc1ccccc1OP(C)(=O)Nc1ccccc1Br (configuration not stated)	inactive
CP(=O)(Nc1ccc(Cl)cc1)Oc1ccc(F)cc1 (configuration not stated)	inactive
CN(C)C(=O)c1c([N+](=O)[O-])cc([N+](=O)[O-])cc1[N+](=O)[O-]	active: 11.2 µM
Nc1ccc2c(ccc3cccnc32)n1.O=[N+]([O-])c1cc([N+](=O)[O-])c(O)c([N+](=O)[O-])c1	inactive
CP(=O)(OC12CC3CC(CC(C3)C1)C2)OC12CC3CC(CC(C3)C1)C2	inactive
